Measurements published in PubChem BioAssay AID1996.
Converted amounts (≈) assume the structure as drawn.

Settings: buffer; pH 7.4; 200.0 µM

solubility kinetic: 3.3 µg/mL (≈ 12.5 µM)
SMILES: COc1ccc(Cl)cc1NC(=O)c1cnccn1
